According to ChEMBL document CHEMBL2417394, “Exquisite selectivity for human toll-like receptor 8 in substituted furo[2,3-c]quinolines” (J Med Chem, 2013):

Experiments:
[1] = biological target: T1, Toll-like receptor 8 (Homo sapiens) (UniProt Q9NR97); experiment: Agonist activity at human TLR8 in human whole blood assessed as CD69 upregulation after 16.5 hrs by flow cytometry in absence of natural killer lymphocytes
T1 sequence (whole entry): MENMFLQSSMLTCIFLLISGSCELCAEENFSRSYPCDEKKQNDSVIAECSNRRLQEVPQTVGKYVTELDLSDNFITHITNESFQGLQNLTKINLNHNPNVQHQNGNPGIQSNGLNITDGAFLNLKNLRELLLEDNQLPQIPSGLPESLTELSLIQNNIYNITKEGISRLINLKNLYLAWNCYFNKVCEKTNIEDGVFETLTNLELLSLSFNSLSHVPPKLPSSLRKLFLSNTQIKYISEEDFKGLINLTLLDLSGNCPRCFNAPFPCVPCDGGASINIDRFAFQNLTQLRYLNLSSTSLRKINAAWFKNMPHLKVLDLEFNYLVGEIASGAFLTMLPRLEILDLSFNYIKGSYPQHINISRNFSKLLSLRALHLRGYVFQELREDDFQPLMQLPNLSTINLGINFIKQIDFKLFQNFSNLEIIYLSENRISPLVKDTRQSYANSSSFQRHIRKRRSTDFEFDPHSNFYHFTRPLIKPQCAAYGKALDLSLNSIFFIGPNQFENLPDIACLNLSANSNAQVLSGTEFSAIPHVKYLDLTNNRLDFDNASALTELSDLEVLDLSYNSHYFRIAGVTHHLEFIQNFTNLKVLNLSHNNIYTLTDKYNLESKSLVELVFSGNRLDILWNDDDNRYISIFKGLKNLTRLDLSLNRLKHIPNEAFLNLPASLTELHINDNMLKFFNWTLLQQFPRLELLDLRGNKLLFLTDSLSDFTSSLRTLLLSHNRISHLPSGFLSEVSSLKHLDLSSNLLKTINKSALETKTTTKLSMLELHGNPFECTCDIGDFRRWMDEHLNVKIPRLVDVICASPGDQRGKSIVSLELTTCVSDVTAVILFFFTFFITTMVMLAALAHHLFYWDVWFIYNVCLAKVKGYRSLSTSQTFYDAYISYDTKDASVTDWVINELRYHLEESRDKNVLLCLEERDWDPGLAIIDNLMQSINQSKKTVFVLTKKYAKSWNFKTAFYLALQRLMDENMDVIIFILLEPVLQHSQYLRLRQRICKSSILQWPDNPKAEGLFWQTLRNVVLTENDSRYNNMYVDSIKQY

[2] = biological target: T1, Toll-like receptor 8 (Homo sapiens); experiment: Agonist activity at human TLR8 in human whole blood assessed as induction of IL-1beta production
[3] = biological target: T1, Toll-like receptor 8 (Homo sapiens); experiment: Agonist activity at TLR8 in human PBMC assessed as increase of G-CSF level after 12 hrs
Method in brief: (§1)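 Fresh human PBMCs isolated on Ficoll-Hypaque gradients, plated at 10⁵ cells/well and stimulated for 12 h with graded concentrations of compound. Supernatants were collected by centrifugation and assayed in triplicate with a magnetic bead-based multiplexed cytokine/chemokine bead array. Read on a MAGPIX instrument; intra-assay CV 4–8%.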

[4] = biological target: T1, Toll-like receptor 8 (Homo sapiens); experiment: Agonist activity at human TLR8 in human whole blood assessed as induction of IL-18 production
[5] = biological target: T1, Toll-like receptor 8 (Homo sapiens); experiment: Modulation of human TLR8 expressed in HEK293 cells co-transfected with MD2 and sAP assessed as induction of NF-kappaB activity by reporter gene assay; format: cell-based
[6] = biological target: T1, Toll-like receptor 8 (Homo sapiens); experiment: Agonist activity at human TLR8 in human whole blood assessed as induction of IL-8 production
[7] = biological target: T1, Toll-like receptor 8 (Homo sapiens); experiment: Agonist activity at TLR8 in human PBMC assessed as increase of MIP1beta level after 12 hrs
Method in brief: as §1

[8] = biological target: T1, Toll-like receptor 8 (Homo sapiens); experiment: Agonist activity at human TLR8 in human whole blood assessed as induction of IL-6 production
[9] = biological target: T1, Toll-like receptor 8 (Homo sapiens); experiment: Agonist activity at human TLR8 in human whole blood assessed as induction of IL-12 production
[10] = biological target: T1, Toll-like receptor 8 (Homo sapiens); experiment: Agonist activity at human TLR8 in human whole blood assessed as induction of TNFalpha production
[11] = biological target: T1, Toll-like receptor 8 (Homo sapiens); experiment: Agonist activity at TLR8 in human PBMC assessed as increase of GRO level after 12 hrs
Method in brief: as §1

[12] = biological target: T1, Toll-like receptor 8 (Homo sapiens); experiment: Agonist activity at TLR8 in human PBMC assessed as increase of MIP1alpha level after 12 hrs
Method in brief: as §1

[13] = biological target: T1, Toll-like receptor 8 (Homo sapiens); experiment: Agonist activity at human TLR8 in human whole blood assessed as CD69 upregulation after 16.5 hrs by flow cytometry

CCCCc1cc2c(o1)c(N)nc1ccccc12
Activity [1]: inactive
Activity [2]: Dose-dependent effect
Activity [3]: Active
Activity [4]: Active
Activity [5]: Active
Activity [6]: Dose-dependent effect
Activity [7]: Active
Activity [8]: Dose-dependent effect
Activity [9]: Active
Activity [10]: Dose-dependent effect
Activity [11]: Active
Activity [12]: Active
Activity [13]: Active

The source made the active and inactive calls. The rule behind the calls is not given here.
